High-throughput results from PubChem.
Rce1 inhib – yeast Ras-converting enzyme inhibition | Q03530 | yeast membranes, quenched prenylated peptide cleavage fluorescence | calls only | actives 0.27% (n = 290,000);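 active means fall in fluorescence gain of 50% or more versus controls, with final raw signal at or below 3038400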;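 further: plate controls were neutral control wells for no effect and wells lacking membranes for full effect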
DSG3 Ab inh – blocks pemphigus antibody binding to human desmoglein-3 | actives 0.48% (n = 310,000) | DSG3-coupled beads, scFv-anti-DSG3-GFP binding, flow cytometry; stronger effect = lower value | P32926 | binding (percent of control), % at 10 µM;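 active means binding more than 3 SD below its plate's average and above zero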;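 further: hits lower antibody fragment binding to DSG3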
Arrestin-AP2 inh – human beta-arrestin and AP2 interaction inhibition; inhibition, % at 10 µM; AID 504490; FITC-arrestin peptide / GST-AP2 beads, flow cytometry; AP2 beta2 appendage carries R879A mutation; actives 0.31% (n = 340,000);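 active means inhibition above a set limit, near 3 SD of compounds lacking own fluorescence, cut at about 54% in these data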;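 further: plate controls were DMSO wells for no effect and 5 µM unlabelled arrestin peptide for full effect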
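Test system: GST-tagged AP2 beta2-adaptin appendage (R879A) on 4 µm glutathione beads; also added: fluorescein-tagged arrestin peptide at 50 nM final; timing: 12 min plus 1 h, RT; signal: flow cytometry, FL1 (488/535 nm); read-out: percent drop in bead-associated FITC signal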
UUG fidelity – modulators of yeast start codon fidelity, primary screen, whole organism, S. cerevisiae, single point, plate reader | AID 602363, 2012 | S. cerevisiae UUG-firefly luciferase reporter, luminescence/redox ratio | activity score, % at 18.7 µM | hit rate 0.13% among 350,000;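 active = replicate mean at a twofold rise or more, about +100% in these data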;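 also: firefly luciferase made from a UUG start codon reports start codon fidelity; reporter light over untreated wells divided by growth signal over untreated wells; some hits fall short of that in this replicate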
Tb MetRS inh – Trypanosoma brucei MetRS inhibition; purified T. brucei MetRS, ATP depletion, Kinase-Glo luminescence; inhibition, % at 11.9 µM; actives 0.4% (n = 360,000);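 active means inhibition above a per-plate cutoff of the control wells' mean inhibition plus 3 SD, cut at about 5.5% in these data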;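 further: 0% = DMSO wells median and 100% = median of wells with control inhibitor compound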
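Dosing: 11.9 µM single point; system: parasite MetRS enzyme; technique: luminescence of leftover ATP; times: 15 min enzyme-compound preincubation, 2 h reaction, 10 min detection, 25 °C; replicates: each compound tested once; read-out basis: percent inhibition relative to median high and low control wells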
* hit, by the source's call; i = inactive; · = not tested or not shown; + = active, no number. Only some compounds are listed: those with a hit (about 1.2% of all), similar ones and a draw of the others.

Assay codes: A = Rce1 inhib; B = DSG3 Ab inh; C = Arrestin-AP2 inh; D = UUG fidelity; E = Tb MetRS inh
> Cc1ccccc1N1CCN(CCN2C(=O)CC(=C3c4ccccc4-c4ccccc43)C2=O)CC1
  A = ·; B = 88.2*; C = 36.8; D = -4.0; E = -0.9

> O=C1CC(=C2c3ccccc3-c3ccccc32)C(=O)N1CCN1CCN(c2ccccc2)CC1
  A = i; B = 96.1; C = -3.8; D = -7.9; E = 0.1

> C[C@@H]1CN([C@H](C)CO)C(=O)CCCn2nncc2CO[C@H]1CN(C)Cc1ccc(O)cc1
  A = ·; B = 31.1*; C = ·; D = 4.7; E = -0.8

> Cc1cccc(CCNC(=O)CCS(=O)(=O)c2ccc3nc(C)sc3c2)c1
  A = i; B = 112.8; C = -1.2; D = -13.1; E = 0.6

> Cc1ccc(CCNC(=O)CCS(=O)(=O)c2ccc3nc(C)sc3c2)cc1
  A = i; B = -10.9*; C = 16.1; D = -13.7; E = -1.8

> COCC(=O)N(C)C[C@@H]1Oc2ncc(C#Cc3ccccc3)cc2C(=O)N([C@@H](C)CO)C[C@H]1C
  A = ·; B = ·; C = ·; D = 10.5; E = ·

> Cc1ccc(NC(=O)Nc2cc(Cl)ccc2C2COC(=O)C2=N)cc1 (stereo not given)
  A = i; B = 94.5; C = 10.8; D = ·; E = 2.0

> CC(=O)Nc1ccc(Cl)cc1C1COC(=O)C1=N (stereo not given)
  A = +; B = 100.1; C = 0.5; D = ·; E = 0.2

> CCN(CC)c1ccc(C(=C2C=CC(=[N+](CC)CC)C=C2)c2ccc(N(CC)CC)cc2)cc1
  A = ·; B = ·; C = 90.2*; D = -62.6; E = -0.7

> CCN(CC)c1ccc(C(=C2C=CC(=[N+](CC)CC)C=C2)c2ccccc2)cc1
  A = ·; B = 92.5; C = 13.6; D = ·; E = -0.2

> COCC(=O)Nc1ccc2c(c1)C(=O)N(C)[C@H]1CC[C@@H](CC(=O)Nc3ccccc3)O[C@@H]1CO2
  A = ·; B = ·; C = ·; D = 0.0; E = ·

> COC(=O)c1cnn2c3c(c(C)nc12)CCCC3
  A = +; B = 103.6; C = -8.1; D = -8.9; E = -0.7

> CCOC(=O)C1=C[C@]2(CC)CCCN3CCc4c(n1c1ccccc41)[C@@H]32
  A = i; B = 75.4*; C = 20.4; D = -17.7; E = -1.3

> CN1CCN(Cc2nc3ccccc3c(=O)n2Cc2nc(-c3ccc([N+](=O)[O-])cc3)cs2)CC1
  A = i; B = -159.8*; C = -0.8; D = ·; E = 0.4

> O=C(CSc1nc(O)cc(=O)n1-c1ccccc1)Nc1ccc2c3c(cccc13)CC2
  A = i; B = 41.3*; C = -2.4; D = -15.1; E = -0.9

> COc1ccccc1NC(=O)N[C@H]1C=C[C@H](CC(=O)N[C@H](C)c2ccccc2)O[C@H]1CO
  A = ·; B = ·; C = ·; D = -2.5; E = ·

> COC(=O)c1ccccc1NC(=O)NCc1ccccn1
  A = i; B = 101.9; C = -9.8; D = -18.6; E = 0.1

> COC(=O)c1ccccc1NC(=O)NCc1cccnc1
  A = +; B = ·; C = 2.4; D = 1.8; E = -0.1

> CCC(C)NC(=O)CSC1=Nc2ccccc2C2=NC(CC(=O)NCc3ccc(F)cc3)C(=O)N12 (stereo not given)
  A = +; B = 102.0; C = 6.8; D = -1.9; E = -0.9

> COc1ccc(NC(=O)Nc2ccc3c(c2)C(=O)N([C@H](C)CO)C[C@@H](C)[C@H](CN(C)Cc2ccc(-c4ccccc4)cc2)O3)cc1
  A = ·; B = ·; C = ·; D = -1.9; E = ·

> COc1ccc2[nH]c3nc(SCC(=O)NNC(=O)c4ccc(OC)c(OC)c4)nnc3c2c1
  A = i; B = 14.6*; C = 13.6; D = -15.0; E = -0.2

> Cc1ccc(C(=O)NNC(=O)CSc2nnc3c(n2)[nH]c2ccc(F)cc23)cc1
  A = i; B = 96.2; C = 1.6; D = -10.3; E = 1.1

> CCC1(c2ccccc2)NC(=O)N(CC(=O)Nc2ccc3c(C)cc(=O)oc3c2)C1=O (stereo not given)
  A = +; B = 121.9; C = 3.7; D = -19.8; E = -0.4

> Nc1nc2nn(-c3ccccc3)nc2c(=O)[nH]1
  A = i; B = 91.8; C = -8.4; D = -19.4; E = -0.5

> Nc1nc2n[nH]nc2c(=O)[nH]1
  A = +; B = 94.8; C = 2.8; D = -3.0; E = -0.3

> CCC(CC)C(=O)Nc1cccc(S(=O)(=O)c2cccc(NC(=O)C(CC)CC)c2)c1
  A = i; B = -13.1*; C = 32.7; D = -4.3; E = -1.4

> C[C@@H]1CN([C@@H](C)CO)C(=O)c2cc(C3=CCCCC3)cnc2O[C@H]1CN(C)Cc1ccccc1F
  A = ·; B = ·; C = ·; D = -7.7; E = ·

> CN(C(=O)C1CC1)C1CCS(=O)(=O)C1 (stereo not given)
  A = i; B = 83.7*; C = 12.3; D = 5.2; E = -0.5

> CN(C(=O)C1CCCC1)C1CCS(=O)(=O)C1 (stereo not given)
  A = i; B = 111.3; C = 28.1; D = -10.2; E = -0.5

> C=CCOC(=O)C1=C(C)NC(SCC(N)=O)=C(C#N)C1c1cccs1 (stereo not given)
  A = i; B = 18.1*; C = 0.9; D = -27.8; E = 0.1

> CC(=O)C1=C(C)NC(SCC(N)=O)=C(C#N)C1c1cccs1 (stereo not given)
  A = i; B = 84.0; C = -1.9; D = -3.9; E = -0.4

> COc1ccc(C(=O)Oc2ccc(/C=N/NC(=O)c3ccccc3OC)cc2[N+](=O)[O-])cc1
  A = i; B = -5.1*; C = 4.0; D = -8.5; E = -1.4

> COc1ccc(C(=O)N/N=C/c2ccc(OC(=O)c3cccc4ccccc34)c([N+](=O)[O-])c2)cc1
  A = i; B = 97.9; C = -17.5; D = ·; E = -0.1

> C[C@H]1CN([C@@H](C)CO)C(=O)c2cccc(NC(=O)c3cnccn3)c2O[C@H]1CN(C)CC1CCCCC1
  A = ·; B = ·; C = ·; D = 4.2; E = ·

> Cc1ccc(NC(=O)c2cc(-n3cnnc3)ccc2Cl)cc1
  A = i; B = 104.5; C = 30.6; D = -20.6; E = -0.4

> Cc1ccc(NC(=O)c2cc(N3C(=O)C=CC3=O)ccc2Cl)cc1C
  A = i; B = 88.7*; C = 14.4; D = -38.2; E = 0.8

> C[C@@H]1CN([C@@H](C)CO)C(=O)c2cccc(NC(=O)Nc3cccc4ccccc34)c2O[C@H]1CN(C)C(=O)Nc1cccc2ccccc12
  A = ·; B = ·; C = ·; D = -0.2; E = ·

> CCCCCCc1nc(C(N)=O)c2[nH]c(=O)n(-c3ccc(OCC)cc3)c2n1
  A = i; B = 99.2; C = -10.0; D = 3.9; E = -0.3

> CCCCCCc1nc(C(N)=O)c2[nH]c(=O)n(-c3ccccc3F)c2n1
  A = i; B = 62.4*; C = 1.1; D = -8.9; E = -1.4

> O=C(N[C@@H]1CC[C@@H](CCNC(=O)C2CCOCC2)O[C@@H]1CO)c1ccccn1
  A = ·; B = ·; C = ·; D = -18.0; E = ·

> CNC[C@H]1Oc2ccc(NS(=O)(=O)c3ccc(F)cc3)cc2C(=O)N([C@@H](C)CO)C[C@H]1C
  A = ·; B = ·; C = ·; D = -7.3; E = ·

> O=C1OC(COc2ccc(Br)cc2)CN1c1ccccc1 (stereo not given)
  A = i; B = 81.0*; C = 7.5; D = ·; E = -0.7

> CCN(CC)CCN(Cc1cc2cc3c(cc2[nH]c1=O)OCO3)C(=S)NCc1ccco1
  A = +; B = 101.7; C = -2.2; D = ·; E = 1.5

> CCN(CC)CCCN(Cc1cc2cc3c(cc2[nH]c1=O)OCO3)C(=S)NCc1ccco1
  A = i; B = 108.2; C = -14.9; D = ·; E = 0.5

> COc1cccc2cc(C(=O)N3CCCCCCC3)c(=O)oc12
  A = i; B = 19.0*; C = -9.1; D = -7.3; E = -0.3

> COc1cccc2cc(C(=O)N3CCN(C(=O)c4ccco4)CC3)c(=O)oc12
  A = i; B = 103.0; C = -4.1; D = ·; E = 0.1

> CC(C)Cc1nc(N2CCN(C(=O)c3ccco3)CC2)c(C#N)c2c1CCCC2
  A = i; B = 100.6; C = -21.6; D = -4.3; E = -0.2

> CC(C)C(=O)N1CCN(c2nc(-c3ccccc3)c3c(c2C#N)CCCC3)CC1
  A = +; B = 102.2; C = 4.8; D = -7.4; E = 0.0

> CC(=O)OCC(=O)Nc1cc(S(=O)(=O)N2CCCCCC2)ccc1Cl
  A = i; B = 71.3*; C = 0.9; D = ·; E = -0.2

Full records, looked up by structure. Values in the order: Rce1 inhib	DSG3 Ab inh	Arrestin-AP2 inh	UUG fidelity	Tb MetRS inh
Record of `COc1cccc2cc(C(=O)N3CCCCCCC3)c(=O)oc12` : i	19.0*	-9.1	-7.3	-0.3
Record of `C[C@H]1CN([C@@H](C)CO)C(=O)c2cccc(NC(=O)c3cnccn3)c2O[C@H]1CN(C)CC1CCCCC1` : ·	·	·	4.2	·

Marked active in Arrestin-AP2 inh, of those listed so far:
Assay codes: A = Rce1 inhib; B = DSG3 Ab inh; C = Arrestin-AP2 inh; D = UUG fidelity; E = Tb MetRS inh
> CCN(CC)c1ccc(C(=C2C=CC(=[N+](CC)CC)C=C2)c2ccc(N(CC)CC)cc2)cc1
  A = ·; B = ·; C = 90.2*; D = -62.6; E = -0.7
